Patent US8618147B2, “Modified macrophage migration inhibitory factor inhibitors” (The Feinstein Institute for Medical Research, priority 2006, dated 2013)

The chains behind the UniProt entries cited, without tags or fusion partners. Residues count along the entry.
UniProt P14174, 2-115 limits assumed: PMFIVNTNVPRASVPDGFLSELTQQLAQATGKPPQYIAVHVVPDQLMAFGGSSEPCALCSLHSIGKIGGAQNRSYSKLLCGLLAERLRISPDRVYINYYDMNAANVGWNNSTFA

Molecular target: MIF (Homo sapiens (Human), UniProt P14174)
Assay: MIF dopachrome tautomerase assay
Format: biochemical
Conditions: potency relative to ISO-1

CC(C)(C)COC(=O)CC1CC(c2ccc(O)cc2)=NO1 (stereo not shown)
fold more potent than ISO-1: about ten
